Data reported in US9073882B2, “Inhibitors of the renal outer medullary potassium channel” (Merck Sharp & Dohme Corp., priority 2010, dated 2015).

Amino acid sequences for entries named in this document (tags omitted). A change or cut given only in a name is not applied to a line headed by its entry.
UniProt P48048: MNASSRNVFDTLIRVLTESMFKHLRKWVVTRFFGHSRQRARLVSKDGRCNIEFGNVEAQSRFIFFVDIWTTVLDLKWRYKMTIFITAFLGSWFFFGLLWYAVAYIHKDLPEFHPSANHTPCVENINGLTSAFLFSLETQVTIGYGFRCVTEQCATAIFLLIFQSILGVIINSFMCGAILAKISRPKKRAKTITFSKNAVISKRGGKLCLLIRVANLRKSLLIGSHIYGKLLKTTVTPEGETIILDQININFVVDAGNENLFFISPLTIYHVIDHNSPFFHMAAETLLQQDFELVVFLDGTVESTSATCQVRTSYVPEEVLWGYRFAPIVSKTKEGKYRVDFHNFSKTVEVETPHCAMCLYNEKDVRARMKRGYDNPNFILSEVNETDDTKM

Molecular target: hROMK (hKir1.1) (Homo sapiens (Human), UniProt P48048)
Assay: Thallium Flux Assay
Type: cell-based
Conditions: Table 2; HEK293 cells stably expressing hROMK (hKir1.1)

`O=[N+]([O-])c1ccc(CCN2CCN(CCc3ccc([N+](=O)[O-])cc3)CC2)cc1` [Example 1, 1,4-Bis[2-(4-nitrophenyl)ethyl]piperazine] was tested, and the IC50 was 66 nM.
